The source of these data is ChEMBL document CHEMBL1127054, “3-Aryl-2-(3'-substituted-1',2',4'-oxadiazol-5'-yl)tropane analogues of cocaine: affinities at the cocaine binding site at the dopamine, serotonin, and norepinephrine transporters” (J Med Chem, 1993).

Sequences of proteins named here, by UniProt entry; tags and fusion partners are left off.
UniProt P23977, whole entry: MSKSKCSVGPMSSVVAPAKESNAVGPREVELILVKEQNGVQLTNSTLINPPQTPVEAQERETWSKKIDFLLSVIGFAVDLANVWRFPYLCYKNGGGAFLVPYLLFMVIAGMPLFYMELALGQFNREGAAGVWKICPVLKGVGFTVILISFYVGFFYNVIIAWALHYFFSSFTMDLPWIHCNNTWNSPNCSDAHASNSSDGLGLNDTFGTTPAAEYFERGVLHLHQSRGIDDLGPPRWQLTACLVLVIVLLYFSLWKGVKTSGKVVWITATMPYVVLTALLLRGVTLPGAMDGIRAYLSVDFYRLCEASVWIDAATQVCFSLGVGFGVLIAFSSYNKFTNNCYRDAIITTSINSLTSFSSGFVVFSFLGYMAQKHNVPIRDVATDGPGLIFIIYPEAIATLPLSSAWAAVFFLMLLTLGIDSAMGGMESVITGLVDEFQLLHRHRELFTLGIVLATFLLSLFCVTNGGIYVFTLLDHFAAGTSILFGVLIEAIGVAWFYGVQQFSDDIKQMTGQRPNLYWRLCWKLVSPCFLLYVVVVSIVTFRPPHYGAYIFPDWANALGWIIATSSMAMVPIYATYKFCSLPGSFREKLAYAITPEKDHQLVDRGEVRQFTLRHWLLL

Each structure is given as a SMILES string.

This test addresses Sodium-dependent dopamine transporter (Rattus norvegicus, UniProt P23977). The test is described as follows: Binding affinity towards Dopamine transporter by displacement of [3H]WIN-35428 radioligand from rat brain. In general terms: Displacement assays read how much labelled ligand stays bound in the presence of the test substance.

For the compound `COC(=O)C1C2CC[C@H](C[C@@H]1c1ccc(Cl)cc1)N2C` (some centres not stated), the IC50 (commonly the concentration at which inhibition is half-maximal) was found to be 1.12 nM. As for `Cc1noc(C2C3CC[C@H](C[C@@H]2c2ccc(Cl)cc2)N3C)n1` (some centres not stated), the IC50 came to 4.05 nM.
